Measured values taken from ChEMBL document CHEMBL4130523, “Targeting the Allosteric Site of Oncoprotein BCR-ABL as an Alternative Strategy for Effective Target Protein Degradation” (ACS Med Chem Lett, 2017).

Sequences of proteins named here, by UniProt entry; tags and fusion partners are left off.
UniProt P00519, whole entry: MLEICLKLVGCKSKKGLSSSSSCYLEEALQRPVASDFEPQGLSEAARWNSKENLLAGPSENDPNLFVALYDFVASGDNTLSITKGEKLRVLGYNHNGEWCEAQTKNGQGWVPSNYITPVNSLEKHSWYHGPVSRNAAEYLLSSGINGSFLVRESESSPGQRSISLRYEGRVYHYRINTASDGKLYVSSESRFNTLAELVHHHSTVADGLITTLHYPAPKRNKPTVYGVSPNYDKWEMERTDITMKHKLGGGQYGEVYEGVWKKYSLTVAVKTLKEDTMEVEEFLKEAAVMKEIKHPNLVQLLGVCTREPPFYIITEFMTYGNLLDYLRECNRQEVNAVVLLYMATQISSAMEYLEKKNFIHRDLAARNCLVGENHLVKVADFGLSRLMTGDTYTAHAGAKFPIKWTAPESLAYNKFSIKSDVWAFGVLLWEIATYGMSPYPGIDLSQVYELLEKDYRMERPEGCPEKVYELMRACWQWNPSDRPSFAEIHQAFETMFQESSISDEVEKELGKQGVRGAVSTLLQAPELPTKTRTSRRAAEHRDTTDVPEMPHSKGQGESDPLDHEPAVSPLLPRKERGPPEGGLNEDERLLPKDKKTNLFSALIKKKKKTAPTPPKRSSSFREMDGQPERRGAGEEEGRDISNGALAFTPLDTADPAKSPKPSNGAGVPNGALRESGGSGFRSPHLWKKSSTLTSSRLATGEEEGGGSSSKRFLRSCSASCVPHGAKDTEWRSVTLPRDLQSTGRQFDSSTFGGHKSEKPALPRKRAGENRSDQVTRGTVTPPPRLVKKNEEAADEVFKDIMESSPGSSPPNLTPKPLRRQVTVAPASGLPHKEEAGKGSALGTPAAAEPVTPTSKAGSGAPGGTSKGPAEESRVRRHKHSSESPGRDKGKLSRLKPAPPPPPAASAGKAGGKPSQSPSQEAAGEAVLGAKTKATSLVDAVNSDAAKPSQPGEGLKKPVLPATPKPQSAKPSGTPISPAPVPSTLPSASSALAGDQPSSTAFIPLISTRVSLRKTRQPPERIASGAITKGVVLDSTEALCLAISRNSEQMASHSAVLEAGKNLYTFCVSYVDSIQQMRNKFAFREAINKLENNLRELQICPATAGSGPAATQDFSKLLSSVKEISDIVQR

Target: Tyrosine-protein kinase ABL1 (Homo sapiens, UniProt P00519)
Test: Inhibition of recombinant human His-tagged full length ABL1 allosteric site expressed in baculovirus expression system by TR-FRET assay

IC50: 2 µM
SMILES: O=C(NCCO)c1cccc(-c2cc(Nc3ccc(OC(F)(F)F)cc3)ncn2)c1
